Kd data for one compound are collected here from patent publication US6921531B2, “Administering bifunctional molecules containing a drug moiety and presenter protein ligand for therapy” (The Board of Trustees of the Leland Stanford Junior …, priority 1998, dated 2005).

Amino acid sequences for entries named in this document (tags omitted).
UniProt P62942, whole entry: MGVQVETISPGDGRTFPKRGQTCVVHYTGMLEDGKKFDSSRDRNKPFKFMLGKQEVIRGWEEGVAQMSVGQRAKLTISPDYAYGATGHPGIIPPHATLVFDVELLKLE

The target of the assay is FKBP12 (Homo sapiens, UniProt P62942). Briefly: Binding constants (Kd) for FKBP12, isothermal titration calorimetry. The conditions noted are these: read-out: Binding constant (Kd) for FKBP12; ITC, 25° C., pH 7.2, 150 mM NaCl, 20 mM Tris. An excerpt: SLF was synthesized according to the procedures of Holt et al. [J. Am. Chem. Soc. 1993, 115, 9925]. SLF was coupled to the N-terminus of the resin-bound protected pYEEI peptide using PyBOP. The heterodimeric SLFpYEEI was deprotected and cleaved from the Novasyn TGT resin (Calbiochem-Novabiochem, San Diego, Ca.) using 25% trifluoroacetic acid and 2.5% triisopropyl silane in methylene chloride and the desired product was isolated using reverse phase HPLC. C. […] Recombinant FKBP12 or FKBP52 bind to the FK506 moiety of FKpYEEI, thus creating an enlarged binding surface. Recombinant FKBP12 was expressed as a GST fusion protein and bound to glutathione beads (Pharmacia). Using thrombin (Sigma) to cleave the GST-FKBP12 fusion protein at a thrombin cleavage site in the linker between GST and FKBP12, recombinant FKBP12 could be released from the glutathione beads where GST remained bound. FKBP52 was expressed with a tag of six histidine residues at its N-terminus (pET28c expression vector, Novagen). […]
SLFpYEEI and FKpYEEI are bifunctional molecules that can bind FKBP12 and FKBP52 as well as the Fyn SH2 domain (FIG. 2). The binding constants (Kd values) of the bifunctional molecules for the three proteins were measured using isothermal titration calorimetry (ITC) (Table 1).
Background: ITC needs no label: the signal is the heat of the interaction.

As for `CCC(C)(C)C(=O)C(=O)N1CCCC[C@H]1C(=O)O[C@H](CCc1ccc(OC)c(OC)c1)c1cccc(OCC(=O)O)c1`, the Kd (usually the equilibrium constant for the complex coming apart) amounted to 0.02 µM.
